Source: patent US6632977B2 (priority 1996, dated 2003)

Assays:
Format in all cases: in vivo
[1] = tested on: mutant mice deficient in the μ opioid receptor (−/−) and their wild-type congeners (+/+); experiment: Tail immersion test (54° C.), antinociceptive response to morphine; conditions: 2 and 6 mg/kg, subcutaneous
[2] = tested on: mutant mice deficient in the μ opioid receptor (−/−) and their wild-type congeners (+/+); experiment: Hot plate test (licking and jumping), antinociceptive response to morphine; conditions: 2 and 6 mg/kg, subcutaneous
[3] = tested on: mice deficient in the μ opioid receptor (−/−) and their wild-type congeners (+/+); experiment: Conditioned preference of position induced by morphine; conditions: 3 mg/kg, subcutaneous

Q: With `CN1CC[C@]23c4c5ccc(O)c4O[C@H]2[C@@H](O)C=C[C@H]3[C@H]1C5` [morphine] as the compound, how does the “antinociceptive response, latency of withdrawal of the tail” value ([1]; wild-type mice) read?
A: The value was “significant antinociceptive responses”.

Q: And the “antinociceptive response, latency of withdrawal of the tail” value ([1]; μ receptor −/− mutants)?
A: The value was “no antinociceptive response”.

Q: And the “antinociceptive response, latency of licking and jumping” value ([2]; wild-type mice)?
A: Its value is “significant antinociceptive responses”.

Q: And the “antinociceptive response, latency of licking and jumping” value ([2]; μ receptor −/− mutants)?
A: The value was “no antinociceptive response”.

Q: What about the “conditioned preference of position” value ([3]; wild-type mice) of the same compound?
A: The value was “induces a conditioned preference of position”.

Q: And the “conditioned preference of position” value ([3]; μ receptor −/− mutant mice)?
A: Its value is “not observed”.
